This note sets out measurements from ChEMBL document CHEMBL5532738, “Chiral Me-2-arachidonoyl Glycerols: The First Potent Endocannabinoid Glyceride Templates with Stability to COX-2” (ACS Med Chem Lett, 2024).

Amino acid sequences for entries named in this document (tags omitted).
UniProt P20272, whole entry: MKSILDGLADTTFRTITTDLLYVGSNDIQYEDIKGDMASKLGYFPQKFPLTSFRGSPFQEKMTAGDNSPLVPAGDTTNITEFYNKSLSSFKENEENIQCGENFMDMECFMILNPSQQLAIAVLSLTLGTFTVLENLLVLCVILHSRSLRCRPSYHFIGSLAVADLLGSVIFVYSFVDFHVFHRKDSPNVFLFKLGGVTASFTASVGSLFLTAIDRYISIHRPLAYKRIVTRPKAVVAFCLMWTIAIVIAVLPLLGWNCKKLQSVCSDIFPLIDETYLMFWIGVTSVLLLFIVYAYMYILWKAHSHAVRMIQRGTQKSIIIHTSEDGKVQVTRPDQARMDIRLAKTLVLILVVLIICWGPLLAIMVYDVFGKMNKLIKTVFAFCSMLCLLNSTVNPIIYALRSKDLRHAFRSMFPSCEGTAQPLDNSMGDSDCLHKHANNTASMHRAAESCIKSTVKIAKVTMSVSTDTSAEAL

SMILES strings stand for the structures.

This assay deals with Cannabinoid receptor 1 (Rattus norvegicus, UniProt P20272). As to the kind of experiment: Agonist activity at rat CB1 receptor stably expressed in HEK293 cells assessed as inhibition of forskolin-stimulated cAMP accumulation incubated for 5 mins by Lance Ultra cAMP assay. It counts as functional, cell-based. In general terms: Changes in cAMP serve as a functional read-out for many G protein-coupled receptors.

For `CCCCC/C=C\C/C=C\C/C=C\C/C=C\CCCC(=O)OC(CO)CO` [2-ARACHIDONOYLGLYCEROL], the EC50 is 25 nM.

Usually EC50 stands for the concentration that produces a half-maximal response.
